# Measured values taken from US20040029100A1, “Rapid screen to identify p-glycoprotein substrates and high affinity modulators” (priority 2000, published 2004).
# The chains behind the UniProt entries cited, without tags or fusion partners.
# UniProt P21448, whole entry: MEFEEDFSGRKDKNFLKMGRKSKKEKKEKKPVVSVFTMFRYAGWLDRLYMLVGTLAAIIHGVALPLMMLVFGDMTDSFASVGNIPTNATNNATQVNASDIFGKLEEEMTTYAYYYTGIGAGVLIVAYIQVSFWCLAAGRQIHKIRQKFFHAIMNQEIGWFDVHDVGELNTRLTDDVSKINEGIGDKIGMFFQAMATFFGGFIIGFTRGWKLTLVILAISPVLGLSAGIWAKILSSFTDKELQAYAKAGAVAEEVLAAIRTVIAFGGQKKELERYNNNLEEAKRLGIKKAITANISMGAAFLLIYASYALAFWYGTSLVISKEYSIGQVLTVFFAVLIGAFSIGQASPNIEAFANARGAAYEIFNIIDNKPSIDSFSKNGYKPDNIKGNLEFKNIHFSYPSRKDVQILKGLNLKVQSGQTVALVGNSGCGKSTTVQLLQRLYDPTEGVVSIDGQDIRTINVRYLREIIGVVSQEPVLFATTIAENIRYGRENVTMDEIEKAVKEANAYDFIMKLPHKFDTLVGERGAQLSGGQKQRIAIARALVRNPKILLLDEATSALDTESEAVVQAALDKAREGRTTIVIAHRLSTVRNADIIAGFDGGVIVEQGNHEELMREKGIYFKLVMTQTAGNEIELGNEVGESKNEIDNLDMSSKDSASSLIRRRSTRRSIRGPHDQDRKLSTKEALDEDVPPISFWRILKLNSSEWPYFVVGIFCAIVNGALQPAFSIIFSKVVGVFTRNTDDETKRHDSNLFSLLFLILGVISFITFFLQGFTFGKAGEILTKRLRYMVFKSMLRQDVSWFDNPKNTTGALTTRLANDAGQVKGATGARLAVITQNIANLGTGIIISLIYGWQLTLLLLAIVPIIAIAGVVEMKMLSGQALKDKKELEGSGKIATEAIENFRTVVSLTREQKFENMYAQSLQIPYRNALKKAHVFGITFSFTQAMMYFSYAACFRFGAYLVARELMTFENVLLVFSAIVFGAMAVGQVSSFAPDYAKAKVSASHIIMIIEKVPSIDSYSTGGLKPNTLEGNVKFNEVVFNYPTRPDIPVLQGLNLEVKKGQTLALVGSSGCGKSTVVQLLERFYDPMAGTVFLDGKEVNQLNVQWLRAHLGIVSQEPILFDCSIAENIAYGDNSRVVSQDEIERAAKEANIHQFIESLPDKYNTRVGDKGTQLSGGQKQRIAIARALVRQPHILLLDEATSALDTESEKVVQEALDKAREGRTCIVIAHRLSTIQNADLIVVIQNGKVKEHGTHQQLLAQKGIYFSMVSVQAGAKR
# Molecular target: P-glycoprotein (Pgp) purified from MDR CH^RB30 Chinese hamster ovary cells (Cricetulus griseus, UniProt P21448)
# Assay: Quenching of intrinsic Trp fluorescence of purified Pgp by nucleotides, drugs and peptides
smiles,measurement,value
COc1cc2c(c(OC)c1OC)-c1ccc(OC)c(=O)cc1[C@@H](NC(C)=O)CC2 [colchicine],Kd,74.9 ± 8.6 µM
